This note sets out measurements from patent US11365195B2, “Atypical inhibitors of monoamine transporters; method of making; and use thereof” (THE UNITED STATES OF AMERICA, AS REPRESENTED BY THE …, priority 2017, dated 2022).

The chains behind the UniProt entries cited, without tags or fusion partners.
UniProt P23977, whole entry: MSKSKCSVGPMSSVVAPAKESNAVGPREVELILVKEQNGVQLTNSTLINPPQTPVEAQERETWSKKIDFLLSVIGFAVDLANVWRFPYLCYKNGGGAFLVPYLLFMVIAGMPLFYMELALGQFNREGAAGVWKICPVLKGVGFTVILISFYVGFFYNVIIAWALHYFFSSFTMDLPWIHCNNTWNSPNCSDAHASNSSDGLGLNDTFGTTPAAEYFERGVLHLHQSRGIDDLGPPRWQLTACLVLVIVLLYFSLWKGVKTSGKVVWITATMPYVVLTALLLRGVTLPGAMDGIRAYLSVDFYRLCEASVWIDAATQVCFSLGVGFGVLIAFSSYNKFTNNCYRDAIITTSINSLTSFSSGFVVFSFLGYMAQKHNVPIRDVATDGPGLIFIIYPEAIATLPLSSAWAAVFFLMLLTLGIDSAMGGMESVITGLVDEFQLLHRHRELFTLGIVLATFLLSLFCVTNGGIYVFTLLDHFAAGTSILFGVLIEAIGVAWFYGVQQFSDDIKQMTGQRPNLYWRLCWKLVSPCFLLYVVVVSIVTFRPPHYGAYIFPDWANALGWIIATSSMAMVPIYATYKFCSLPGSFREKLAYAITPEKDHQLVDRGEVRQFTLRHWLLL

The assay deals with T1, DAT (Rattus norvegicus, UniProt P23977).
T1 construct: 100 μl of tissue preparation (1.5 mg of brain striatum membranes per well); tissue Bioreclamation IVT (Hicksville, N.Y.); host or cells: male Sprague-Dawley rat brain striatum membranes
The assay can be described thus: DAT radioligand binding in rat striatum ([3H]-WIN35,428 competition). Conditions: ratio of SERT Ki to DAT Ki.

Molecules are shown by their SMILES.

With `Cl.O.O=C(c1cc2ccccc2o1)N1CCC(NCCSC(c2ccc(F)cc2)c2ccc(F)cc2)CC1` [JBG02-015, Benzofuran-2-yl(4-((2-((bis(4-fluorophenyl)methyl)thio)ethyl)amino)piperidin-1-yl)methanone], the SERT/DAT was found to be 0.84.
